This assay addresses Met kinase (Homo sapiens, UniProt P08581). Nature of the assay: Met kinase inhibition, enzyme assay (flashplate method). Format: biochemical. The arrangement: 6His (N); purchased Upstate 14-526; host or cells: Sf21 insect cells (S. frugiperda), baculovirus. The protocol: Flashplate Method (Met Kinase)
The test plates used are 96-well Flashplate® microtitre plates from Perkin Elmer (Cat. No. SMP200). The components of the kinase reaction described below are pipetted into the assay plate. The Met kinase and the substrate poly Ala-Glu-Lys-Tyr, (pAGLT, 6:2:5:1), are incubated for 3 hrs at room temperature with radioactively labelled ^33P-ATP in the presence and absence of test substances in a total volume of 100 μl. The reaction is terminated using 150 μl of a 60 mM EDTA solution. After incubation for a further 30 min at room temperature, the supernatants are filtered off with suction, and the wells are washed three times with 200 μl of 0.9% NaCl solution each time. The measurement of the bound radioactivity is carried out by means of a scintillation measuring instrument (Topcount NXT, Perkin-Elmer).
The full value used is the inhibitor-free kinase reaction. This should be approximately in the range 6000-9000 cpm. The pharmacological zero value used is staurosporin in a final concentration of 0.1 mM. The inhibitory values (IC50) are determined using the RS1_MTS program.
Kinase reaction conditions per well:
10 μl of substance to be tested in assay buffer with 10% of DMSO
10 μl of ATP (final concentration 1 μM cold, 0.35 μCi of ^33P-ATP)
50 μl of Met kinase/substrate mixture in assay buffer;

Amino acid sequences for entries named in this document (tags omitted). Residues count along the entry.
UniProt P08581, 974-1390 limits assumed: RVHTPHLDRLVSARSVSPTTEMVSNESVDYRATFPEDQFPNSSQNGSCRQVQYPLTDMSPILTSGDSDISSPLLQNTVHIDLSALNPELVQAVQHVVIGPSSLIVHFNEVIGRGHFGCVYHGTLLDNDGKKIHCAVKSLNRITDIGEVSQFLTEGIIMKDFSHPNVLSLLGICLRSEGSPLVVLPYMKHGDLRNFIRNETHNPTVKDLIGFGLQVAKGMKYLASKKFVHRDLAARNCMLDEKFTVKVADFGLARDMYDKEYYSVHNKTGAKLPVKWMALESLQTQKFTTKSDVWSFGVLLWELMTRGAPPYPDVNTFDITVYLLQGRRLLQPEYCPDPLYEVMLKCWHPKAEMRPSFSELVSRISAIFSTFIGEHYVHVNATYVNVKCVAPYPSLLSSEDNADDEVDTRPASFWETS

In general, IC50 refers to the concentration that gives 50% inhibition. Low values mean higher potency, high ones lower potency.

With `Cc1cnc(-c2cccc(Cn3nc(-c4cc(F)cc(F)c4)ccc3=O)c2)o1` [Compound A13, 6-(3,5-difluorophenyl)-2-[3-(5-methyloxazol-2-yl)benzyl]-2H-pyridazin-3-one], the IC50 lay within 10 to 1000 nM.

The record behind these values is patent US8435981B2, “2-(heterocyclylbenzyl)pyridazinone derivatives” (Merck Patent Gesellschaft mit Beschränkter Haftung, priority 2006, dated 2013).
